{"sequences": {"note": "The chains behind the UniProt entries cited, without tags or fusion partners.", "UniProt Q9Y3N9, whole entry": "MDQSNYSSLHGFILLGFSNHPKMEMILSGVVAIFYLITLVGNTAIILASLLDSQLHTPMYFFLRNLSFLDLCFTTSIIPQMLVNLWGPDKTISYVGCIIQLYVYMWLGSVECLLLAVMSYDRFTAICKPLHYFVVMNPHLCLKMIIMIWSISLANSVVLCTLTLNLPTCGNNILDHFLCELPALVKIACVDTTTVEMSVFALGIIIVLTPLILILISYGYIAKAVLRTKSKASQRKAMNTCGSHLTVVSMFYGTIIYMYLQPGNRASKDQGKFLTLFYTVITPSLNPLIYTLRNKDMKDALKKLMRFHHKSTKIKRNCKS", "UniProt Q9P1Q5, whole entry": "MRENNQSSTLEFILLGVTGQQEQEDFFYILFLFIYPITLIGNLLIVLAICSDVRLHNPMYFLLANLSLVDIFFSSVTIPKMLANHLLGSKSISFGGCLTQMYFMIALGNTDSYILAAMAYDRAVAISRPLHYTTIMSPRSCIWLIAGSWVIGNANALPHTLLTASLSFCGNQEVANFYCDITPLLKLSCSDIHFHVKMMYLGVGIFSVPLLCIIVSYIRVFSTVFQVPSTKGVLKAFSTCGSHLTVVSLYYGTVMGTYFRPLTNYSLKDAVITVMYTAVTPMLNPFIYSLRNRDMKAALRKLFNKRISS"}, "source": "paper PMC8583936", "about": "“Machine Learning Assisted Approach for Finding Novel High Activity Agonists of Human Ectopic Olfactory Receptors” (International Journal of Molecular Sciences, 2021)", "origin": "cited, not measured here", "key": {"OR2W1": {"molecular_target": "OR2W1 (Homo sapiens, UniProt Q9Y3N9)", "conditions": "Table S2; ref Supplement references [2]-[12]; cited from earlier work"}, "OR1A1": {"molecular_target": "OR1A1 (Homo sapiens, UniProt Q9P1Q5)", "conditions": "Table S1; ref Supplement references [1]-[9]; cited from earlier work"}}, "note": "Some compounds may have been tested in ways that are not shown here.", "data": [{"smiles": "Cc1ccc([N+](=O)[O-])cc1[N+](=O)[O-]", "values": [{"measurement": "Class (agonist / non-agonist / antagonist / conflicting info.) for OR2W1", "setting": "OR2W1", "value": "Non-agonist"}, {"measurement": "Class (agonist / non-agonist / conflicting info.) for OR1A1", "setting": "OR1A1", "value": "Conflicting info."}]}]}
